Results reported in ChEMBL document CHEMBL6114989, “D-morphinan analogs with favorable pharmacokinetic profiles as dual-acting antidepressants” (Eur J Med Chem, 2025).

Sequences of proteins named here, by UniProt entry; tags and fusion partners are left off.
UniProt P35372, whole entry: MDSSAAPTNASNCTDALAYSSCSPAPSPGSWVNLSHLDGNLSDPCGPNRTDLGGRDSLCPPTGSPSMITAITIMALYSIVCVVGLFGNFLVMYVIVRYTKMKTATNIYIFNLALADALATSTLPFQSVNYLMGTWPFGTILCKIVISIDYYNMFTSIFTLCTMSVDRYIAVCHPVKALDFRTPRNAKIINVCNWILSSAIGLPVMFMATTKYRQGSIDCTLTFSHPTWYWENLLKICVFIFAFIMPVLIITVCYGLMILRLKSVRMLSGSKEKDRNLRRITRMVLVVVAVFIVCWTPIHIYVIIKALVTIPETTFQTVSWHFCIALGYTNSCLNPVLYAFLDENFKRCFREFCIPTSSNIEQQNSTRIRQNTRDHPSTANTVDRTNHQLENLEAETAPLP

Target: Mu-type opioid receptor (Homo sapiens, UniProt P35372)
Experiment: Agonist activity at human mu-opioid receptor stably expressed in CHO cells assessed as inhibition of forskolin-induced cAMP accumulation preincubated with compound for 10 mins followed by forskolin induction and measured after 30 mins by LANCE Ultra cAMP assay
Type: functional, cell-based

CN1CC[C@@]23CCCC[C@@H]2[C@@H]1Cc1ccc(O)cc13 [DEXTRORPHAN]
pEC50: 4.96

pEC50: −log10 of the molar value.
